# Test results: patent publication US9150544B2 (dated 2015)
# The chains behind the UniProt entries cited, without tags or fusion partners.
# UniProt P00740, whole entry partner, looked up: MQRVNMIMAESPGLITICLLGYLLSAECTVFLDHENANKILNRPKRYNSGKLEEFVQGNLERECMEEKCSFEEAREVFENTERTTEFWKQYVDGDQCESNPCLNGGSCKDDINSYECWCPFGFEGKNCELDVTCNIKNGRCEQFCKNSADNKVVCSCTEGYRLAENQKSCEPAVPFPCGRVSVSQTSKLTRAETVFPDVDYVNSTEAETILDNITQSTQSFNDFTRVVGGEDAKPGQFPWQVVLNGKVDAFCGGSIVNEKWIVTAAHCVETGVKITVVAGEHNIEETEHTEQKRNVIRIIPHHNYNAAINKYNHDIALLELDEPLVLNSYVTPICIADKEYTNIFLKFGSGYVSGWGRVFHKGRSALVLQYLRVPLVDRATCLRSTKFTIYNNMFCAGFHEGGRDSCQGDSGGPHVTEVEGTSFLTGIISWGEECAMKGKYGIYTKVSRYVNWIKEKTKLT
# Biological target: human factor IXa (Homo sapiens (Human), UniProt P00740)
# Assay: biochemical
# Conditions: read-out: Imax IXa (percentage inhibition at the maximum concentration tested)
row,Compound,inhibition at 5 µM [%]
1,"CCOC(=O)[C@@H](Cc1cc2ccnc(N)c2cc1Cl)N1CC[C@H](NS(=O)(=O)c2cnc(N3CCCC3)s2)C1=O [Compound 84, (R)-3-(1-Amino-7-chloro-isoquinolin-6-yl)-2-[(S)-2-oxo-3-(2-pyrrolidin-1-yl-thiazole-5-sulfonylamino)-pyrrolidin-1-yl]-propionic acid ethyl ester]",60
2,COC(=O)[C@@H](Cc1cc2ccnc(N)c2cc1Cl)N1CC[C@H](NS(=O)(=O)c2cnc(N3CCC3)s2)C1=O [Compound 85],63
3,"COC(=O)[C@@H](Cc1cc2ccnc(N)c2cc1OC(F)(F)F)N1CC[C@H](NS(=O)(=O)c2cnc(N(C)C)c(Cl)c2)C1=O [Compound 86, (R)-3-(1-Amino-7-trifluoromethoxy-isoquinolin-6-yl)-2-[(S)-3-(5-chloro-6-dimethylamino-pyridine-3-sulfonylamino)-2-oxo-pyrrolidin-1-yl]-propionic acid methyl ester]",50
4,"CCCCOC(=O)[C@@H](Cc1cc2ccnc(N)c2cc1Cl)N1CC[C@H](NS(=O)(=O)c2cnc(N3CCCC3)s2)C1=O [Compound 93, (R)-3-(1-Amino-7-chloro-isoquinolin-6-yl)-2-[(S)-2-oxo-3-(2-pyrrolidin-1-yl-thiazole-5-sulfonylamino)-pyrrolidin-1-yl]-propionic acid butyl ester]",63
5,"COC(=O)[C@@H](Cc1cc2ccnc(N)c2cc1C#N)N1CC[C@H](NS(=O)(=O)c2cnc(N3CCCC3)s2)C1=O [Compound 94, (R)-3-(1-Amino-7-cyano-isoquinolin-6-yl)-2-[(S)-2-oxo-3-(2-pyrrolidin-1-yl-thiazole-5-sulfonylamino)-pyrrolidin-1-yl]-propionic acid methyl ester]",58
